Test results reported in PMC7613515, “Reading and erasing of the phosphonium analogue of trimethyllysine by epigenetic proteins” (Communications Chemistry, 2022).

System: KDM4DJmjC (M1–L358)
Assay: MALDI-TOF demethylation assay, KDM4DJmjC
Format: biochemical, human
Conditions: KDM4DJmjC 2.4 µM, peptide 5.0 µM, 1 hr, duplicates
Text: To investigate whether H3KP9me3 can be demethylated by other human KDM4 subfamily members, recombinant KDM4AJmjC (M1–L359) and KDM4DJmjC (M1–L358) were produced in E. coli following an adaption of literature procedures[38],[39]. […] No evidence for further demethylation was accrued. […] To test the ability of KDM3 and KDM7 subfamily representatives to demethylate H3KP9me2 or H3KP9me3, KDM3AJmjC (T515–S1317) and KDM7BJmjC (M37–N483) were produced using baculovirus/sf9 and E. coli expression systems, respectively[40],[41]. The synthesis of a histone H3 mimic peptide H3KP9me2 substrate is challenging as the tri-alkylated phosphine group is susceptible to oxidation during synthesis of the protected amino acid and during SPPS requiring oxygen-free conditions. Thus, to investigate if KDM3AJmjC or KDM7BJmjC can catalyse demethylation of H3KP9me2, an appropriate H3KP9me2 substrate was prepared in situ from H3KP9me3 using KDM4EJmjC (2.0 µM), in the presence of KDM3AJmjC (2.0 µM) or KDM7BJmjC (2.0 µM).
The following purified reader domains: TAF3PHD (R857-K924), KDM5APHD3 (JARID1A, M1489-V1641), BPTFPHD (L2583-N2751), KDM4ATTD (JMJD2A, Q897-P1011) and SGF29TTD (R115-K293) were prepared as reported[10],[22]–[26]. The histone lysine demethylase were produced and purified to high purity via reported procedures KDM3A (JMJD1A, T515-S1317)[41], KDM4AJmjC[39] […]

In the case of “ARTKQTAR(Kme3)STGGKA [H3K9me3, natural trimethyllysine control peptide, histone H3 residues 1–15, reference compound]”, the “demethylation” value is reported as “clear demethylation activity”.
